This is a selection; strong and weak results do not stand in their true shares. Calls of active or inactive are those of the source. No stated cut-off is given here; in the data, active means percent response above about 24% (passing the limit was not always enough); inactive means the rest.
system: MEKK2 (MAP3K2) mutant PB1 domain binding to MEK5, human; assay: MEK5 binding signal on mutant MEKK2 PB1, primary screen, biochemical, multiplex bead flow cytometry, Alexa488-MEK5 (AID 1530); details: at 10 µM, hits give high values

| Structure (SMILES) | percent response |
| --- | --- |
| Clc1n[nH]nc1-c1nn[nH][15n]1 | inactive: 1% |
| CC(C)(C)C(=O)NC(Sc1ncccn1)C(Cl)(Cl)Cl (stereo unspecified) | inactive: -6% |
| CCOP(=O)(Nc1ccc(C)cn1)OCC | inactive: 3% |
| CN(CCCl)Cc1cc(Cl)c(NC2=NCCN2)c(Cl)c1 | inactive: 10% |
| CCC1=CC2Cc3nc4ccc(Cl)cc4c(N)c3C(C1)C2 (stereo unspecified) | inactive: 21% |
| O=P1(Nc2ccccn2)COc2ccccc2OC1 | inactive: 2% |
| CCOP(=O)(NC(=NC(C)c1ccccc1)NC(C)c1ccccc1)OCC (stereo unspecified) | inactive: 2% |
| COc1cc(C2NCCC3(OCCO3)C2(C)C)cc(OC)c1OC (stereo unspecified) | inactive: -3% |
| CCOP(=O)(Nc1cccc2ccccc12)OCC | inactive: -2% |
| CCCOP(=S)(Nc1nc(N)cc(=O)[nH]1)OCCC | inactive: 2% |
| Cc1ccc(NCCc2c([N+](=O)[O-])cc([N+](=O)[O-])cc2[N+](=O)[O-])cc1 | inactive: -2% |
| Nc1cccc2c([As](=O)(O)O)cccc12 | inactive: 3% |
| Cc1cccc(OCC(=O)OC2CN3CCC2CC3)c1 (stereo unspecified) | inactive: -12% |
| O=[As](O)(c1cccc(O)c1)c1cccc(O)c1 | inactive: -14% |
| O=[As](O)(O)c1cccnc1 | inactive: 5% |
| COc1cc(C(=O)NCC2(N3CCOCC3)CCCCC2)cc(Cl)c1OC(C)C | inactive: 0% |
| CS(=O)(=O)c1ccc(Cl)c(NC(=O)COC(=O)C(O)(c2ccccc2)c2ccccc2)c1 | inactive: 5% |
| O=C(OC1CN2CCC1CC2)c1ccc(Cl)cc1 (stereo unspecified) | inactive: 8% |
| O=[N+]([O-])c1ccc2c(c1)nnn2O | inactive: 7% |

| Structure (SMILES) | percent response |
| --- | --- |
| CN(C(=O)Cc1ccc(Cl)c(Cl)c1)[C@H]1CC[C@@]2(CCCO2)C[C@@H]1N1CCCC1 | inactive: 0% |
| CN(C(=O)Cc1ccccc1)[C@@H]1CC[C@]2(CCCO2)C[C@H]1N1CCCC1 | inactive: 1% |
| CCOP1(=S)c2c(C)nn(CCC#N)c2N=C(c2ccc(F)cc2)N1C (stereo unspecified) | inactive: 2% |
| NC(=O)Nc1ccc([As](=O)(O)O)cc1 | inactive: 3% |
| O=C(O)COc1ccc([As](=O)(O)O)cc1[N+](=O)[O-] | inactive: 8% |
| Nc1ccccc1[As](=O)(O)c1ccccc1 | inactive: 7% |
| CS(=O)(=O)c1cc([N+](=O)[O-])c2no[n+]([O-])c2c1 | inactive: -21% |
| CCOP1(=S)c2c(C)nn(CCC#N)c2N=C(c2ccccc2F)N1C (stereo unspecified) | inactive: 6% |
| O=P(Nc1nccs1)(Oc1ccccc1)Oc1ccccc1 | inactive: 6% |
| O=P(Nc1nccs1)(c1ccccc1)c1nc2ccccc2s1 (stereo unspecified) | inactive: 4% |
| CC(C)NC(=O)NP(=O)(Oc1ccccc1)Oc1ccccc1 | inactive: 2% |
| CCN(CC)C(=S)SC(NC=O)C(Cl)(Cl)Cl (stereo unspecified) | inactive: 9% |
| O=[N+]([O-])c1cc([N+](=O)[O-])c(-c2ccn[nH]2)s1 | inactive: 1% |
| CC(C)c1ccc(OP(=O)(Nc2ccccn2)Oc2ccccc2F)cc1 (stereo unspecified) | inactive: -1% |
| ClCCSc1nnc(-c2cccnc2)o1 | inactive: 0% |
| Cc1ccc2nc3c(c(C)c2c1)CC(C(Cl)Cl)S3 (stereo unspecified) | inactive: 1% |
| Cc1ccc(OP(=O)(Nc2ccc([N+](=O)[O-])cn2)Oc2ccc(C)cc2)cc1 | inactive: 9% |
| O=[As](O)(c1ccc(O)cc1)c1ccccc1O | inactive: 8% |
| C[As](=O)(O)c1cccc(C(=O)O)c1 | inactive: 7% |

| Structure (SMILES) | percent response |
| --- | --- |
| COc1ccc(N/C(=N/P(=O)(N2CCOCC2)N2CCOCC2)N2CCOCC2)cc1 | inactive: -1% |
| COc1ccc2nc(NP(=O)(c3ccccc3)c3ccccc3)sc2c1 | inactive: -1% |
| COc1cc(I)ccc1[As](=O)(O)O | inactive: 0% |
| O=C(OC1CN2CCC1CC2)C12CC3CC(CC(C3)C1)C2 (stereo unspecified) | inactive: 2% |
| Cc1cc(=O)[nH]c(N[N+](=O)[O-])n1 | inactive: -3% |
| Cc1c2c(nc3ccccc13)SC(C(Cl)Cl)C2 (stereo unspecified) | inactive: -1% |
| CCC(C)N(CC(C)C)C(=S)SC(NC(C)=O)C(Cl)(Cl)Cl (stereo unspecified) | inactive: 1% |
| CCOC(=O)c1ccc(NC(=O)C(C)(CCl)SC)cc1 (stereo unspecified) | inactive: -4% |
| O=C(OC1CN2CCC1CC2)c1cccc([N+](=O)[O-])c1 (stereo unspecified) | inactive: 2% |
| O=C(Nc1ccncc1[N+](=O)[O-])c1ccc([N+](=O)[O-])cc1[N+](=O)[O-] | inactive: 7% |
| COP1(=S)c2c(C)nn(CCC#N)c2N=C(c2ccc(F)cc2)N1C (stereo unspecified) | inactive: 3% |
| O=[N+]([O-])c1ccc(Nc2ccc(Oc3ccc([N+](=O)[O-])cc3[N+](=O)[O-])cc2)c([N+](=O)[O-])c1 | inactive: -1% |
| Cc1cc(SC(NC=O)C(Cl)(Cl)Cl)ncn1 (stereo unspecified) | inactive: -1% |
| O=P(Nc1ccccn1)(c1cccc2ccccc12)c1cccc2ccccc12 | inactive: 1% |
| CCOC(=O)Nc1cccc([As](=O)(O)O)c1 | inactive: 10% |
| CCCCOc1ccc(C(=O)NCC2(N3CCCCC3)CCCCC2)cc1OC | inactive: 8% |
| Cc1cc(SC(NC(=O)c2ccccc2)C(Cl)(Cl)Cl)nc(C(C)C)n1 (stereo unspecified) | inactive: 31% |
| CCOC(=O)Nc1ccc([As](=O)(O)O)c(O)c1 | inactive: 4% |
